Results published in PMC10541190 (The Journal of Clinical Investigation, 2023).
Values joined by “and” are separate entries in the source; they are usually repeats but may differ in a detail not shown here. Equal entries are not always repeated. Where two headings read alike, the source gives them in different places.

What was measured:
[1] = tested on: Huh7 cells
[2] = tested on: Vero cells
[3] = tested on: U-87 MG cells

In the case of `CO[C@@H]1[C@@H](O[C@@H]2O[C@H](C)[C@@H](O[C@H]3C[C@@](C)(O)[C@@H](OC(=O)CC(C)C)[C@H](C)O3)[C@H](N(C)C)[C@H]2O)[C@@H](CC=O)C[C@@H](C)[C@@H](O)/C=C/C=C/C[C@@H](C)OC(=O)C[C@H]1OC(C)=O` [Josamycin], the “Huh7 cell viability (%)” value ([1]; human, 3.33 µM) is reported as 96.23% and the “Huh7 cell viability (%)” value ([1]; human, 10 µM) is reported as 98.66%.
For `O=C1NCN(c2ccccc2)C12CCN(CCCC(c1ccc(F)cc1)c1ccc(F)cc1)CC2` [Fluspirilene], the “Huh7 cell viability (%)” value ([1]; human, 0.37 µM) was 95.78%.
For Penitrem A, the “Cell viability (%)” value ([2]; 0.625 μM) was 87.82% and 86.81% and 85.55%, the “Cell viability (%)” value ([2]; 1.25 μM) was 93.58% and 92.84% and 89.98% and the “Cell viability (%)” value ([2]; 5 μM) was 92.66% and 91.70% and 87.43%. For the same compound, the “Cell viability (%)” value ([2]; 20 μM) was 101.66% and 99.49% and 98.85% and the CC50 ([2]; African green monkey) was > 20 µM.
For `CC(=O)O[C@@H]1C[C@H]2C(C)(C)C(=O)C=C[C@]2(C)[C@H]2CC[C@@]3(C)[C@H](c4ccoc4)OC(=O)[C@H]4O[C@]43[C@@]21C` [Gedunin], the “Cell viability (%)” value ([2]; 1.25 μM) was 101.81%.
`CC(C)(C)c1cc(C=C(C#N)C#N)cc(C(C)(C)C)c1O` [Tyrphostin A9] was tested, and the “U-87 MG cell viability (%)” value ([3]; human, 0.25 µM) was 94.64%.
`O[C@H]1[C@H]2c3cc4c(cc3CN3CCC(=C[C@@H]1O)[C@H]23)OCO4` [Lyco-rine] was tested, and the “Cell viability (%)” value ([2]; 0.625 μM) was 98.84%.
For `CC(C)(C)c1cc(/C=C(\C#N)C(N)=S)cc(C(C)(C)C)c1O` [Tyrphos-tin AG 879], the “U-87 MG cell viability (%)” value ([3]; human, 0.25 µM) was 94.64%.
With `CC(C)(C)c1cc(C=C(C#N)C#N)cc(C(C)(C)C)c1O` [Tyrphos-tin A9] the “Cell viability (%)” value ([2]; 5 μM) was 101.86%.
With `OC[C@H]1O[C@H]([S-])[C@H](O)[C@@H](O)[C@@H]1O.[Au+]` [Aurothio-glucose] the “U-87 MG cell viability (%)” value ([3]; 0.37 µM) was 96.62% and the “Huh7 cell viability (%)” value ([1]; 3.33 µM) was 101.98%.
For `CC(C)(C)c1cc(/C=C(\C#N)C(N)=S)cc(C(C)(C)C)c1O` [Tyrphostin AG 879], the “Huh7 cell viability (%)” value ([1]; human, 10 µM) was 95.79%.
